The values that follow come from ChEMBL document CHEMBL1147784, “Crystal structure of human ERK2 complexed with a pyrazolo[3,4-c]pyridazine derivative” (Bioorg Med Chem Lett, 2006).

Chains of the proteins cited; added tags and fusions are not shown.
UniProt P28482, whole entry: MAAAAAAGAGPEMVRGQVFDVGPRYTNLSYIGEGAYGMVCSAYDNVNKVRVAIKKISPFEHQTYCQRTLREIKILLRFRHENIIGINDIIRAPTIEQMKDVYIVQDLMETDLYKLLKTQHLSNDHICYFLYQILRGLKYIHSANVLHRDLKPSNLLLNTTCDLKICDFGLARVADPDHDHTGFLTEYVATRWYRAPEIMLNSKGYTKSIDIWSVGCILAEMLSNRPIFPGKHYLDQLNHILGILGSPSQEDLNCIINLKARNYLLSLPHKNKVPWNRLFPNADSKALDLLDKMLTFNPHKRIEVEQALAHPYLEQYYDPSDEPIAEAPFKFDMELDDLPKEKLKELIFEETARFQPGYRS

The structures appear in SMILES notation.

In this experiment the target is Mitogen-activated protein kinase 1 (Homo sapiens, UniProt P28482). Description: Inhibitory activity against human ERK2.

`Nc1n[nH]c2nnc(-c3c(-c4ccccc4)nn4ccccc34)cc12` yielded an IC50 of 1900 nM.

The term IC50 denotes the concentration needed to halve the response being measured.
